Measured values from paper PMC12678819, “Targeting bacterial kinases as a strategy to counteract antibiotic resistance” (2025).
Values joined by “and” are separate entries in the source; they are usually repeats but may differ in a detail not shown here. Equal entries are not always repeated.

The chains behind the UniProt entries cited, without tags or fusion partners. Residues count along the entry.
UniProt P53779, 39-402 limits assumed: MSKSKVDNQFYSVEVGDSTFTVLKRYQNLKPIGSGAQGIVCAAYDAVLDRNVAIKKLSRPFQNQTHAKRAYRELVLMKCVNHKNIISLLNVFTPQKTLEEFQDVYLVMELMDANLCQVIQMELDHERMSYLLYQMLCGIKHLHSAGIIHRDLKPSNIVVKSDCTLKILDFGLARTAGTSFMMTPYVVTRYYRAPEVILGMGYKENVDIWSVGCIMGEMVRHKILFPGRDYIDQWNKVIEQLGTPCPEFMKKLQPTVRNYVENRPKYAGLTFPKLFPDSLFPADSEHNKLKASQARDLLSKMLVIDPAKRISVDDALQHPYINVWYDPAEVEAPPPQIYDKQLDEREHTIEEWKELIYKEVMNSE
UniProt Q00532, 4-287 limits assumed: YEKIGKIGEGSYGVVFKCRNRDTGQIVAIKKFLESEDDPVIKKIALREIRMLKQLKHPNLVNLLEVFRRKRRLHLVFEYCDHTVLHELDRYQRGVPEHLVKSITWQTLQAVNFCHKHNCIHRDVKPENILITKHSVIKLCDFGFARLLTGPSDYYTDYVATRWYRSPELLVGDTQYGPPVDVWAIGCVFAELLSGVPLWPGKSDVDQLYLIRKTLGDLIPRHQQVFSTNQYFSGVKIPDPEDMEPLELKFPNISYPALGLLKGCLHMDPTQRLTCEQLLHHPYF
UniProt P22830, 55-423 limits assumed: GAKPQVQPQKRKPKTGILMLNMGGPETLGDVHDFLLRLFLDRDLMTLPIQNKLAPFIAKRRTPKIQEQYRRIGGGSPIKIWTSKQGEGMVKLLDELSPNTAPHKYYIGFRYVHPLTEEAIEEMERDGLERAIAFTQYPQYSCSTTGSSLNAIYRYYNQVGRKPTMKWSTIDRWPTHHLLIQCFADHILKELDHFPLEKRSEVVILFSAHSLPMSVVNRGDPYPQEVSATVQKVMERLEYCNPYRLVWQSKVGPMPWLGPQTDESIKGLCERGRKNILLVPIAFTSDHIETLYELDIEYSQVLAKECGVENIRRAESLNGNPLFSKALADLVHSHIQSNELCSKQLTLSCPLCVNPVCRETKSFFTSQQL

Key:
JNK3 = JNK3 (Homo sapiens, UniProt P53779); experiment: DSF kinase panel; conditions: 10 μM
CDKL1 = CDKL1 (Homo sapiens, UniProt Q00532); experiment: DSF kinase panel; conditions: 10 μM
[1] = Metabolic stability assay, mouse microsomes
[2] = Plasma stability assay, human; conditions: 1 μg∙mL-1
[3] = Plasma stability assay, mouse; conditions: 1 μg∙mL-1
[4] = Metabolic stability assay, human microsomes
[5] = Plasma protein binding, human; conditions: for PPB human (%): mean; for PPB human, single replicate: raw data of Table 3
[6] = Plasma protein binding, mouse; conditions: for PPB mouse (%): mean; for PPB mouse, single replicate: maus, raw data of Table 3
FECH [7] = target: T1, FECH (Homo sapiens, UniProt P22830); experiment: DSF kinase panel; conditions: 10 μM
FECH [8] = target: T1, FECH; conditions: reference compound, quantity not specified; cited from earlier work
[9] = cited from earlier work

| Molecule | ΔTm JNK3 (JNK3) [°C] | ΔTm CDKL1 (CDKL1) [°C] | t1/2 mouse microsomes [1] [min] | t1/2 human plasma [2] [min] | t1/2 mouse plasma [3] [min] | t1/2 human microsomes [4] [min] | PPB human (%) [5] | PPB human, single replicate [5] | PPB mouse (%) [6] [%] | PPB mouse, single replicate [6] | PPB human (%) ([5]; listed as 14 g) | PPB mouse (%) ([6]; listed as 14 g) | ΔTm FECH (FECH [7]) [°C] | Reference (FECH [8]) [nM] | plasma protein binding [9] [%] |
| --- | --- | --- | --- | --- | --- | --- | --- | --- | --- | --- | --- | --- | --- | --- | --- |
| COc1cc2ncnc(Oc3cccc(NC(=O)Nc4cc(C(C)(C)C(F)(F)F)on4)c3)c2cc1OC | 8.8 | 6.6 |  |  |  |  |  |  |  |  |  |  |  |  |  |
| O=C(Cn1cc(-c2c(Cl)cnc3[nH]ccc23)nn1)NCc1ccccc1 |  |  | >60 | >240 | 146.4 | >60 | 95.2 ± 4.5% | 90.1% and 96.8% and 98.7% | 82.0 ± 17.7 |  |  |  |  |  |  |
| Cc1cc(-c2c(Cl)cnc3[nH]ccc23)[nH]n1 |  |  | >60 | 250.8 | 180.1 | >60 |  | 95.8% and 90.9% and 97.6% | 84.2 ± 9.6 | 94.9% and 76.2% and 81.5% |  |  |  |  |  |
| COc1ccc(CNC(=O)Cn2cc(-c3c(Cl)cnc4[nH]ccc34)nn2)cc1 |  |  | >60 | >240 | 127.7 | >60 | 95.4 ± 0.9% | 96.4% and 94.9% and 94.7% | 81.1 ± 10.4 | 91.3% and 70.5% and 81.4% |  |  |  |  |  |
| Clc1cnc2[nH]ccc2c1-c1cn(Cc2ccccc2)nn1 |  |  | >60 | >240 | 134.3 | >60 | 98.0% | 96.1% and 99.3% and 98.7% | 99.6 ± 0.6 | 98.9% |  |  |  |  |  |
| CC(C)(C)C(=O)OCn1cc(-c2c(Cl)cnc3[nH]ccc23)nn1 |  |  | 40.44 | 79.6 | <5 | 2.92 |  |  |  |  |  |  |  |  |  |
| Cc1ccc(-n2cc(-c3c(Cl)cnc4[nH]ccc34)nn2)cc1 |  |  | 19.3 | 241.0 | 114.6 | 19.3 | 99.4% | 98.8% and 99.9% and 99.4% | 99.5 | 99.6% and 99.4% and 99.5% | 99.4 ± 0.5 | 99.5 ± 0.1 |  |  |  |
| OCCn1cc(-c2c(Cl)cnc3[nH]ccc23)nn1 |  |  | >60 | >240 | 165.5 | >60 | 88.7 ± 3.7% | 86.3% and 86.9% and 92.9% | 72.0 ± 18.0 |  |  |  |  |  |  |
| Clc1cnc2[nH]ccc2c1-c1cn(-c2cccnc2)nn1 |  |  | >60 | >240 | 133.5 | >60 | 89.9 ± 8.0% | 81.0% and 92.5% and 96.3% | 81.6 ± 8.2 | 88.4% and 72.6% and 84.0% |  |  |  |  |  |
| CCCS(=O)(=O)Nc1ccc(F)c(C(=O)c2c[nH]c3ncc(-c4ccc(Cl)cc4)cc23)c1F |  |  |  |  |  |  |  |  |  |  |  |  | 5.5 | 1000 |  |
| Fc1ccc(-n2cc(-c3c(Cl)cnc4[nH]ccc34)nn2)cc1 |  |  | >60 | <5 | 123.5 | >60 | 97.2 ± 1.8% | 95.8% and 99.2% and 96.5% | 97.3 ± 0.8 | 97.0% and 98.2% and 96.7% |  |  |  |  |  |
| Fc1cccc(-n2cc(-c3c(Cl)cnc4[nH]ccc34)nn2)c1 |  |  | 2.63 | >240 | 115.8 | 1.76 | 99.2 ± 0.4% and 99.2% | 98.7% and 99.5% and 99.2% | 98.7 ± 0.6 | 99.4% and 98.2% and 98.5% |  |  |  |  |  |
| Clc1cnc2[nH]ccc2c1-c1c[nH]nn1 |  |  | 75.26 | >240 | 175.8 | >60 | 98.9 ± 0.5% | 99.3% and 98.4% and 99.1% | 77.9 ± 13.6 |  |  |  |  |  |  |
| dalbavancin |  |  |  |  |  |  |  |  |  |  |  |  |  |  | > 99 |
